Read-outs that look alike come from different tables or passages of the source.
Tests used:
[1] = test system: S. aureus NorA-, wild type, and NorA+; assay: Photodynamic inactivation (PDI), light-dose dependent phototoxicity; assay type: cell-based, Staphylococcus aureus; details: S. aureus NorA strains; 10 μM
Protocol: A polylysine-chlorine6 conjugate (pL-ce6), and Rose Bengal (RB) (Sigma-Aldrich) were used as non-phenothiazinium-based PS (FIG. 3). Stock solutions were prepared in water at a concentration of 2-mM and stored for a maximum of 2 weeks at 4° C. in the dark before use. Spectra of stock solutions diluted 140-280 fold in methanol were recorded on an UV-visible spectroscopy system (Waldbronn, Germany). A non-coherent light source with interchangeable fiber bundles (LC122, LumaCare, London, UK) was employed. Thirty-nm band pass filters at ranges 540±15 nm for RB, 635±15 nm for TBO, and DMMB, and 660±15 nm for MB and pLce6 were used. The total power output provided out of the fiber bundle ranged from 300-700 mW. The spot was arranged to give an irradiance of 100 mW/cm^2.
Bacterial suspensions in PBS (initial concentration 10^8 cells mL^−1) were incubated with PS in the dark at room temperature for 30 minutes at concentrations varying from 1-μM to 300-μM. The cell suspensions were centrifuged at 12000 rpm and then washed twice with sterile PBS. […] This allowed a maximum of seven logs of killing to be measured. […]
The three isogenic strains of S. aureus were incubated with 10 μM MB for 30 minutes and then washed free of unbound dye by centrifugation and resuspension in PBS and illuminated with 100 mWcm^−2 660-nm light, and the survival fractions determined as described above. […]

[2] = test system: P. aeruginosa MexAB-, wild type and MexAB+; assay type: cell-based, Pseudomonas aeruginosa; details: MexAB knock-out, 300 μM

`CN(C)c1ccc2nc3ccc(=[N+](C)C)cc-3sc2c1` [MB, methylene blue] was tested. Which “overall order of efficiency of killing” value [1] did it give?
Its value is “DMMB>TBO>MB”.

What about the “logs more killing (than wild-type)” value ([2]; at 5 J/cm2) of the same compound?
The value was “two”.

What about the “logs more killing (than wild-type)” value ([2]; at 10 J/cm2) of the same compound?
The value was “two”.

What about the killing ([2]; at 15 J/cm2) of the same compound?
The killing was “completely eliminated”.

Source: patent publication US20130115133A1, “INACTIVATION OF MICROORGANISMS WITH […] […] PHENOTHIAZINIUMS” (priority 2004, published 2013)
